Data from US11981921B2, “TIL expansion processes using specific cytokine combinations and/or AKTi treatment” (Iovance Biotherapeutics, Inc., priority 2022, dated 2024).

Tests used:
[1] = 1 mg vial, lot 10200121 (Cellgenix); cited from earlier work
TIL populations = assay: pre-REP stimulation of TIL populations (B-cells and T-cells) with CD40L; format: cell-based
Protocol: As a result, pre-REP stimulation studies were designed to attempt to enhance the B-cell response in TIL populations. Briefly, frozen tumor digests were cultured by standard protocols (see, the Examples) either in the presence or absence of CD40L beginning on Day 0 and continuing for 48 h. Cells are then assayed for specific tumor recognition, with those responding populations undergoing a second expansion in the REP phase.

[2] = after 14 days of expansion, vs control

| Substance | specific activity [1] | mean increase of CD80+CD86+ B-cell population (TIL populations; 48 h treatment, compared to control TIL populations, flow cytometry) | markers of exhaustion on post-REP T-cells (TIL populations; [2]) | relative size of CD39−CD69− subpopulation post-REP (TIL populations; [2]) | viability and expansion from cryopreserved samples (TIL populations; compared to standard expansion protocols without stimulation) | CD8+ T-cell population (TIL populations; pre-REP) | amount of effector memory T-cells (TEM cells) (TIL populations; pre-REP) | central memory T-cells or CD45+ TEM cells (TIL populations; pre-REP) | number of CD4+ T-cells (TIL populations; pre-REP) | proportion of CD39-CD69− T-cells (TIL populations; pre-REP, relative to control) | robustness of pre-REP expansion on average (TIL populations; vs control conditions) | likelihood of pre-REP TIL populations to expand (TIL populations; vs control conditions, overall cell counts) |
| --- | --- | --- | --- | --- | --- | --- | --- | --- | --- | --- | --- | --- |
| rhIL-2: purified, lyophilized recombinant human interleukin-2 | 25×10^6 IU/mg |  |  |  |  |  |  |  |  |  |  |  |
| CD40L: CD40 ligand, TNF superfamily protein (SEQ ID NO: 238), used as CD40 agonist |  | roughly 20 fold | No significant difference | no significant difference | higher viability and greater expansion | without diminishing | significant increase | no similar increase | significant increase | significant increase | significantly more robust | three times more likely to expand |
